# Experiments:
# Chains of the proteins cited; added tags and fusions are not shown.
# UniProt P08173, whole entry, looked up: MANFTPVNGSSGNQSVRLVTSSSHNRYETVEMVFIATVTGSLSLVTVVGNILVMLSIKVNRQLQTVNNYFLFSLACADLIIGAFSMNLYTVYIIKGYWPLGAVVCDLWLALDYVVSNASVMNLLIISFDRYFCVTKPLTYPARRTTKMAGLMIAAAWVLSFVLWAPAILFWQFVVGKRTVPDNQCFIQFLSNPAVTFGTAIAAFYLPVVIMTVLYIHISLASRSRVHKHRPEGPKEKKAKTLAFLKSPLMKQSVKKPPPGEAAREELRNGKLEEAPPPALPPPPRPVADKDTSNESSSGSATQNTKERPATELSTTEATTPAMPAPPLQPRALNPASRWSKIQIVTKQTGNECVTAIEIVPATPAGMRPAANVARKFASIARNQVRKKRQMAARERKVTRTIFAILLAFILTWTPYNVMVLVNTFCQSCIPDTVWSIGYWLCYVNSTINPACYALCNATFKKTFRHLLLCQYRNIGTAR
# [1] = target: Muscarinic acetylcholine receptor M4 (Homo sapiens, UniProt P08173); experiment: Positive allosteric modulator activity at human M4 receptor expressed in CHO cells co-expressing Gqi5 assessed as leftward shift in concentration response at 10 uM measured after 140 sec by fold shift assay; details: filed as positive allosteric modulator
# [2] = target: T1, Muscarinic acetylcholine receptor M4 (Rattus norvegicus) (UniProt P08485); experiment: Positive allosteric modulator activity at rat M4 receptor expressed in CHO cells co-expressing Gqi5 assessed as leftward shift in concentration response at 10 uM measured after 140 sec by fold shift assay; details: filed as positive allosteric modulator
# T1 sequence (whole entry): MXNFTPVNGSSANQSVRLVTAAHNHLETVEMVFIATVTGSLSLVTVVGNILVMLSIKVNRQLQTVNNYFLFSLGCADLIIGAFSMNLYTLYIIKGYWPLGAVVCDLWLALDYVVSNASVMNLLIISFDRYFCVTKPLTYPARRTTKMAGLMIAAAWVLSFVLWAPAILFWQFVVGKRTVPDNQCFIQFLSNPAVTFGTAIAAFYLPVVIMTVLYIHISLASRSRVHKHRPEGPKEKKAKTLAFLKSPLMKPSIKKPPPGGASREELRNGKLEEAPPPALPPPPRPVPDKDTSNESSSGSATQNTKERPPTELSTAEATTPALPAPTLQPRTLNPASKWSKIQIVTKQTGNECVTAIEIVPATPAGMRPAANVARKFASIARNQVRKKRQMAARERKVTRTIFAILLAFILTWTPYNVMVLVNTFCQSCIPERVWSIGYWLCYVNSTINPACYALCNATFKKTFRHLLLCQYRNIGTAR
structure (smiles),measurement,setting,value
COc1ccc(CNC(=O)c2sc3nnc(C)c(C)c3c2N)cc1F,fold change (FC),[1],45
same,fold change (FC),[2],40

# From ChEMBL document CHEMBL5252536, “Discovery of VU0467485/AZ13713945: An M4 PAM Evaluated as a Preclinical Candidate for the Treatment of Schizophrenia” (ACS Med Chem Lett, 2017)
